Patent US20080206239A1 (ANTITOPE, published 2008)

Chains of the proteins cited; added tags and fusions are not shown. Residues count along the entry.
UniProt P01375, 77-233 limits assumed: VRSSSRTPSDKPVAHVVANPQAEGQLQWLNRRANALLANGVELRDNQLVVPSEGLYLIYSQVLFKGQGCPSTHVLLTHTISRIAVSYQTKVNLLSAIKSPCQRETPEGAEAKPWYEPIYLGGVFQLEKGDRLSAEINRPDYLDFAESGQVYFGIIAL

Target: human TNFα (human, UniProt P01375 77-233)
Assay: cell-based or functional assay

B1: control chimeric antibody (A2 V regions, SEQ. IDs No. 1 and No. 2) (antibody, human IgG1, V domains shown)
VH: EVKLEESGGGLVQPGGSMKLSCVASGFIFSNHWMNWVRQSPEKGLEWVAEIRSKSINSATHYAESVKGRFTISRDDSKSAVYLQMTDLRTEDTGVYYCSRNYYGSTYDYWGQGTTLTVSS
VL: DILLTQSPAILSVSPGERVSFSCRASQFVGSSIHWYQQRTNGSPRLLIKYASESMSGIPSRFSGSGSGTDFTLSINTVESEDIADYYCQQSHSWPFTFGSGTNLEVK
Ratio of Activities compared to Chimeric Antibody (fold difference, WEHI-164 protection assay at 25 ng/ml): 1 fold
